Protein sequences, listed by entry. Tags and fused reporters are not part of them.
UniProt P03372, whole entry: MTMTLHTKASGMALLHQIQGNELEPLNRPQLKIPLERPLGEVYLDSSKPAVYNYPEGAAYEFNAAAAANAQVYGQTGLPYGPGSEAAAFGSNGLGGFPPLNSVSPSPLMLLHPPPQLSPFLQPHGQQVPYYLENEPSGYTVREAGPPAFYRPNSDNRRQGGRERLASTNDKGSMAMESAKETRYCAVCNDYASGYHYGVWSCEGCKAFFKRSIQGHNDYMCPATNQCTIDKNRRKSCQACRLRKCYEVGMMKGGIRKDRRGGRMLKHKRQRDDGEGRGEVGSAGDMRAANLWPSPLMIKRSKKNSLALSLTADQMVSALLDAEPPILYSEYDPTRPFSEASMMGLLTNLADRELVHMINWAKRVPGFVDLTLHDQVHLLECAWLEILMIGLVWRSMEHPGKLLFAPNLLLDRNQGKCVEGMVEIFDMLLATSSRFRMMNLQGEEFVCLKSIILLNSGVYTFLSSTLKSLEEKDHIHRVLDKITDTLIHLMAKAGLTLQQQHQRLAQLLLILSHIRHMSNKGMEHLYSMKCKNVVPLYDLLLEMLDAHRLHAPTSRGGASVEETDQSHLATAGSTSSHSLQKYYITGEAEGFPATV

The assay concerns the target ERα protein (HiBiT-tagged) in ESR1_HiBiT KI MCF7 cells (Homo sapiens, UniProt P03372). In words: Nano Glo HiBiT Lytic Degradation Assay. Format: cell-based. To be noted: read-out: MCF7 ESR1 HiBiT - (DC50), 6 hours with compound, 14-point dose response 1:3, bell-shape curve fit, half-maximal effect of first Hill model.
For `O=C1CC[C@H](N2Cc3cc(N4CCN(CC5CCN(c6ccc([C@H]7c8ccc(O)cc8CO[C@H]7C7CCCC7)cc6)CC5)CC4)ccc3C2=O)C(=O)N1`, the DC50 (in general, the concentration at which degradation of the target reaches its halfway point) worked out at 11 nM.

For the compound `O=C1CC[C@H](N2Cc3cc(N4CCN(CC5CCN(c6ccc([C@H]7c8ccc(O)cc8CO[C@]78CCCc7ccccc78)cc6)CC5)CC4)ccc3C2=O)C(=O)N1`, the DC50 stood at 8 nM.

For `O=C1CC[C@H](N2Cc3cc(N4CCN(CC5CCN(c6ccc([C@@H]7c8ccc(O)cc8CO[C@@H]7C7CCCC7)cc6)CC5)CC4)ccc3C2=O)C(=O)N1`, the DC50 was determined as 0.26 nM.

Regarding `O=C1CC[C@H](N2Cc3cc(N4CCN(CC5CCN(c6ccc([C@H]7c8ccc(O)cc8CC[C@H]7CC(F)(F)F)cc6)CC5)CC4)ccc3C2=O)C(=O)N1`, the DC50 turned out to be 1100 nM.

Regarding `C[C@@]1(c2ccccc2)CCc2cc(O)ccc2[C@H]1c1ccc(N2CCC(CN3CCN(c4ccc5c(c4)CN([C@H]4CCC(=O)NC4=O)C5=O)CC3)CC2)cc1`, the DC50 worked out at 8 nM.

For the compound `Nc1ccc2c(c1)CC[C@H](c1ccccc1)[C@@H]2c1ccc(N2CCC(CN3CCN(c4ccc5c(c4)CN([C@H]4CCC(=O)NC4=O)C5=O)CC3)CC2)cc1`, the DC50 was 0.85 nM.

Turning to `O=C1CC[C@H](N2Cc3cc(N4CCN(CC5CCN(c6ccc([C@@H]7c8ccc(O)cc8CC[C@@H]7C7CCCCCC7)cc6)CC5)CC4)ccc3C2=O)C(=O)N1`, the DC50 was found to be 1.1 nM.

Regarding `O=C1CC[C@H](N2Cc3cc(N4CCN(CC5CCN(c6ccc([C@@H]7c8ccc9[nH]ncc9c8CC[C@@H]7c7ccccc7)cc6)CC5)CC4)ccc3C2=O)C(=O)N1`, the DC50 was ≥ 10000 nM.

Regarding `O=C1CCC(c2ccc(NC3CCN(CC4CCN(c5ccc([C@@H]6c7ccc(O)cc7CC[C@@H]6c6ccccc6)cc5)CC4)CC3)cc2)C(=O)N1` (stereo partly drawn), the DC50 amounted to 182 nM.

Source of the values: patent US20250388565A1, “ESTROGEN RECEPTOR ALPHA DEGRADERS AND METHODS OF USE THEREOF” (Relay Therapeutics, Inc., priority 2022, published 2025).
